scFv variants of Ab-14 (light chain) against a SARS-CoV-2 spike peptide

All variants were tested on one target, the spike HR2 peptide PDVDLGDISGINAS (SARS-CoV-2).

Parent: Ab-14, a human scFv built as VH, three GGGGS repeats, VL. Only the CDRs of the light chain vary.
VH: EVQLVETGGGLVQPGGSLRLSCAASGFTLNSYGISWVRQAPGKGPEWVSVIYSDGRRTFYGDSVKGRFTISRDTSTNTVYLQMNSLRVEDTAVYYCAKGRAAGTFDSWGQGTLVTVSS
VL: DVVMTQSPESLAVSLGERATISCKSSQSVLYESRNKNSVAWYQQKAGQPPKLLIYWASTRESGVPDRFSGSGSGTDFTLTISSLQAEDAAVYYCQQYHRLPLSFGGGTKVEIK

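The starting antibody came from a phage panning campaign against this peptide. This is the validation round: designs drawn from the data on random variants, tested in the same kind of assay. Group labels follow the data file (Ctrl: baseline library sampled from a position-specific scoring matrix, with some repeated check sequences; Rand: our label for a block that the file lists under HC and that is probably the random mutants of the ten best first-round binders; GP: Gaussian process model; HC: hill climbing; Gen: genetic algorithm; Gibbs: Gibbs sampling; a sequence that several methods proposed may carry one label only). In AlphaSeq, yeast of one mating type display the scFv and yeast of the other type display the target. The frequency of each diploid, read from paired DNA barcodes, reflects how well the two displayed proteins bind. A regression on co-assayed BCL2-family reference pairs converts the normalised counts of each replicate to an apparent Kd. Each pool was mated in six replicate cultures.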

Each variant is given by its three light chain CDRs, as the data file delimits them; those of the parent are KSSQSVLYESRNKNSVA, WASTRES, QQYHRLPLS.
Variants here have at most six changes.
Affinities are written as log10 Kd with Kd in nM; a lower number is a better binder.
Replicates are averaged; those with no signal do not enter the mean.
A pair that was not seen in any replicate is written "no signal"; this usually means weak binding, but a binder can also be missed.

| CDR-L1 | CDR-L2 | CDR-L3 | group | mean log10 Kd (nM) | seen in |
|---|---|---|---|---|---|
| KFSQSFLYESRNVNSVA | GASTRDS | QQYHRLPLS | GP_HC | -0.19 | 6/6 |
| KLEQSVCYESRNKNSVA | NASTRES | QQYHRLPLS | GP_Gen | 0.01 | 6/6 |
| KLMQSDLYESRNKNSVA | HASTRES | QQYHRLPLS | GP_Gen | 0.08 | 6/6 |
| KLMQSSLYESRNKNSVA | NASTREW | QQYHRLPLS | GP_Gibbs | 0.10 | 6/6 |
| KFSQLVLYESRNKNSVA | NASTRES | QQYHRLPLS | GP_Gen | -0.07 | 6/6 |
| KSSWSVAQESRNGNSVA | WASTRES | QQYHNLPLS | Ctrl | no signal | 0/6 |
| KFSQSVKMESRNKNSVA | DASTRES | QQYHRLPLS | GP_HC | 0.01 | 6/6 |
| KLSQSDLYESRNKNSVA | EASTRLS | QQYHRLPLS | GP_Gen | -0.15 | 6/6 |
| KMSQSVLMEGRNKNSVA | DASLRES | QQYHRLPLS | GP_HC | -0.01 | 6/6 |
| KSSQGDLYESRNKNSVA | GASTRES | QQYHRLPLS | GP_HC | -0.15 | 6/6 |
| KVSQSVLYESRCKNSVA | NASTRES | QQYHRLPLS | GP_HC | 0.18 | 6/6 |
| KSSMSVLYFSRNKNSVA | WASTRES | QQYHRLPLS | Ctrl | no signal | 0/6 |
| KSSQSVLGESFNLNSVA | DATIRES | QQYHRLPLS | Ctrl | 0.25 | 6/6 |
| KSSQSQLYESRNKNSVA | YASTRES | QQYHRLPLS | Ctrl | 2.72 | 3/6 |
| KFSHSVLYESRNKNSVA | WASTRES | QQYHRLPLS | Ctrl | 1.81 | 3/6 |
| KYSQSDLYESRNKNSVA | GASTRES | QQYHRLPLS | GP_Gen | 0.16 | 6/6 |
| KLSQSKLYESRNSNNVA | DASTRES | QQYHRLPLS | GP_Gen | -0.56 | 6/6 |
| KLPFSTLYESRQKNSVA | WASTRES | QQYHRLPLS | GP_HC | 1.63 | 6/6 |
| KQSQSVLYESQNFNSVA | WASTRES | QQYHRLPLS | Ctrl | no signal | 0/6 |
| KSGWGVLYESRNKNSVA | GASTRES | QQYHRLPLS | GP_HC | -0.14 | 6/6 |
| KSSISFLYESRNKNSVA | EASTRES | QQYHRLPLS | GP_HC | 0.38 | 6/6 |
| KSSQKVLYESRNKNSVA | WASTRES | QQYARLPLV | Ctrl | 1.45 | 2/6 |
| KSMQSVLYESRNKNSVA | SASTRES | QQYHRLPLS | Ctrl | -0.04 | 6/6 |
| KLSQSWLYESRWKNSVA | NASQRES | QQYHRLPLS | GP_Gen | 0.11 | 6/6 |
| KLSQMVDYESRNMNNVA | EASTRES | QQYHRLPLS | GP_Gibbs | -0.22 | 6/6 |
| KLEQGVLYESRNKGSVA | GASVRES | QQYHRLPLS | GP_HC | -0.34 | 6/6 |
| KSSQSYLGESRNKNSVA | EASTRES | QQYHRLPLS | GP_HC | 0.45 | 6/6 |
| KISQSVLYESRNKNSVA | AASSRES | QMYHRLPLS | Ctrl | 0.06 | 6/6 |
| KLRQSVLYESRNKNSVA | HASTRED | QQYHRLPLS | GP_HC | -0.22 | 6/6 |
| KLHQSVGYEERNKNSVA | GASQRES | QQYHRLPLS | GP_Gibbs | 0.09 | 6/6 |
| KSSQSVLYESRNKNSVA | WGSTRES | QTYHRLPLS | Ctrl | 2.14 | 4/6 |
| KLSISYLGEKRNKNSVA | EASTRES | QQYHRLPLS | GP_HC | 0.13 | 6/6 |
| KSSQSVLYESMNKNSVA | EASTREC | QQYVRLPLS | Ctrl | 0.41 | 6/6 |
| KLDQSVLYESRNKNSVA | NASQRES | QQYHRLPLS | GP_Gen | -0.52 | 6/6 |
| KHSQSFLYESRNKNSVA | GASTRES | QQYHRLPLS | GP_HC | -0.08 | 6/6 |
| KSSQNVLYESRNKNSVA | HASQRES | QQYHRLPLS | Ctrl | 0.36 | 6/6 |
| KSSQRELYESRNKNSVA | WASTRES | QQYHRLPLS | Ctrl | 2.03 | 6/6 |
| KMSQKVLNESRNQNSVA | WASTRES | QQYHRLPLS | Ctrl | 1.75 | 6/6 |
| KSSQSVLYESDNKNSVA | WASTRES | QQYSALPLS | Ctrl | 2.62 | 6/6 |
| KSSMSQLYESRNKNSVA | GASTRES | QQYHRLPLS | GP_HC | 0.04 | 6/6 |
| KFSQSELYESRNKNSVA | NASQREE | QQYHRLPLS | GP_Gen | -0.27 | 6/6 |
| KFSQSVLYESRNKNSVA | MASTRES | QAYHRLPLS | GP_HC | 1.56 | 6/6 |
| KFSQKVLYEQRTKNSVA | NASTRES | QQYHRLPLS | GP_HC | 0.22 | 6/6 |
| KLSQSYLYESRNKNSVA | NASQREQ | QQYHRLPLS | GP_Gen | -0.28 | 6/6 |
| KSSISVLYESRNKNSVA | NASTRES | QQYHRLPLS | Ctrl | 1.66 | 6/6 |
| DSSQSVLYESDNKNSVA | NASTRES | QQYHRLPLK | Ctrl | 0.07 | 6/6 |
| KSSQSVLQESRNKNSVA | WASTREY | QQYARLPLS | Ctrl | 1.72 | 5/6 |
| KSSQSVLYESHNKNSVA | WASTREQ | QQYHRLPLS | Ctrl | 1.61 | 6/6 |
| QVSQSFLYESRNKNSVA | GASTRES | QQYHRLPLS | GP_HC | -0.45 | 6/6 |
| YLSQSVLYESRNKNSVA | NASTREY | QQYHRLPLM | GP_Gibbs | -0.05 | 6/6 |
| KISQSVLRESRNVNSVA | EASTRES | QQYHCLPLT | Ctrl | -0.04 | 6/6 |
| KLSQSMLYESRNKNNNA | WASTRES | QQYHRLPLS | Ctrl | no signal | 0/6 |
| KVSQSCLMESRNKNSVA | EASTRES | QQYHRLPLS | GP_HC | 0.39 | 5/6 |
| KSSQSVLYDSRNKNSVA | WAYTRES | QQHHRLPLS | Ctrl | 3.14 | 1/6 |
| KLSCGVDYESRNKNSVA | GASTRES | QQYHRLPLS | GP_Gibbs | -0.41 | 6/6 |
| KQSQLVLFESRNKNSVA | DASTRES | QQYHRLPLS | GP_HC | -0.11 | 6/6 |
| DVSQSVLYEGRNKNSVA | QASERES | QQYHRLPLE | Ctrl | -0.07 | 6/6 |
| KLSQSVLYESRMKNSVA | NASTREK | QQYHRLPLS | GP_Gen | -0.29 | 6/6 |
| KLSQLMLYESRNKNSVA | NASTRMS | QDYHRLPLS | GP_Gibbs | 0.59 | 6/6 |
| KSSGSWLYWSRNKNSVA | GASTRES | QQYHRLPLS | Rand | 0.09 | 6/6 |
| KFSQSVMMESRNKNSVA | EASTRES | QQYHRLPLS | GP_Gen | 2.59 | 1/6 |
| KLSQDVLYESRNKNSVA | NASTRES | QQYHRLPLS | GP_Gen | -0.34 | 6/6 |
| KNSQKVLYESRNKNSVA | WASTRES | QQYHRLPLD | Ctrl | no signal | 0/6 |
| KSSVSVLQESRNKNSVA | WASTRES | QQYHRLPLS | Ctrl | 1.52 | 6/6 |
| KSSMSVLAESRNKNSVA | WASTRES | QQPHRLPLS | Ctrl | no signal | 0/6 |
| KSYQSSWYESRNKNSVA | NASLRCS | QQYHRLPLS | GP_Gibbs | 0.67 | 6/6 |

Repeated from above, the 8 best binders with a signal in all replicates:

| CDR-L1 | CDR-L2 | CDR-L3 | group | mean log10 Kd (nM) | seen in |
|---|---|---|---|---|---|
| KLSQSKLYESRNSNNVA | DASTRES | QQYHRLPLS | GP_Gen | -0.56 | 6/6 |
| KLDQSVLYESRNKNSVA | NASQRES | QQYHRLPLS | GP_Gen | -0.52 | 6/6 |
| QVSQSFLYESRNKNSVA | GASTRES | QQYHRLPLS | GP_HC | -0.45 | 6/6 |
| KLSCGVDYESRNKNSVA | GASTRES | QQYHRLPLS | GP_Gibbs | -0.41 | 6/6 |
| KLSQDVLYESRNKNSVA | NASTRES | QQYHRLPLS | GP_Gen | -0.34 | 6/6 |
| KLEQGVLYESRNKGSVA | GASVRES | QQYHRLPLS | GP_HC | -0.34 | 6/6 |
| KLSQSVLYESRMKNSVA | NASTREK | QQYHRLPLS | GP_Gen | -0.29 | 6/6 |
| KLSQSYLYESRNKNSVA | NASQREQ | QQYHRLPLS | GP_Gen | -0.28 | 6/6 |

Empty control strains, which show no peptide, gave a signal in 4% of pairings with all light chain designs; the median was 2.64 and 95% of these signals were weaker than 1.59. No background was subtracted.
The range of this assay differs from that of the first round, and the authors advise against merging the two.
The authors' rule: three or more of the six replicates give a measured affinity, fewer mean a poor binder.

From the AlphaSeq antibody data of Li et al. 2023 (doi:10.1038/s41467-023-39022-2), copy in the FLAb collection.